The values that follow are results of earlier work, collected in patent US20120220664A1, “USE OF METFORMIN IN CANCER TREATMENT AND PREVENTION” (priority 2009, published 2012).

For the data set, the system named is non-transformed cells. As to conditions: typically 10-30 mM metformin; previous experiments (refs 7-9); cited from earlier work.

Turning to `CN(C)C(=N)N=C(N)N` [metformin], the “toxicity for non-transformed cells” value was “toxic for non-transformed cells”.
